Only a part is listed here, and it is no random draw. Activity calls are given as the source filed them.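 The calls were made as follows: active = compounds whose thallium flux B-score, printed positive for inhibition, exceeds three library SD while starting fluorescence stays within three; inactive = the rest.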

Amino acid sequences for entries named in this document (tags omitted).
UniProt P51787, whole entry: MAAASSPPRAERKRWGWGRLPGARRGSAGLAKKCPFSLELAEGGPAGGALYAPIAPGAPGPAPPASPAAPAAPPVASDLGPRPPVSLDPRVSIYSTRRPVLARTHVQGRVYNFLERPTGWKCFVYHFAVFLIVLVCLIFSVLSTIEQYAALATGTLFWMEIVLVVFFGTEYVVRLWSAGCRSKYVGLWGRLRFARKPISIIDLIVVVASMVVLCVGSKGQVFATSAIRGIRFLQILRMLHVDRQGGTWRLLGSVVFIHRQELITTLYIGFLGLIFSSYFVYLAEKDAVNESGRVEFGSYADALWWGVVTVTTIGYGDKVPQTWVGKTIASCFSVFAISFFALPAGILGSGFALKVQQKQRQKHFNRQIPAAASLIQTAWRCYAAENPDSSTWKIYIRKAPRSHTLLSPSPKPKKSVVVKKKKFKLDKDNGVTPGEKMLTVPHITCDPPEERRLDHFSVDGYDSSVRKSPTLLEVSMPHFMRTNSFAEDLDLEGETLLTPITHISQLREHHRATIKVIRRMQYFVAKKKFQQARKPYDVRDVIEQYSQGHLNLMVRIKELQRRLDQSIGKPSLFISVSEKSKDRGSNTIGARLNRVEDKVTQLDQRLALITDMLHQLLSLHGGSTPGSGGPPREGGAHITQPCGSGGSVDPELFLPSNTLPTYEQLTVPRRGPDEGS

This assay has as its target Potassium voltage-gated channel subfamily KQT member 1 (Homo sapiens) (UniProt P51787). In words: inhibitors of human KCNQ1 channel, primary screen, cell-based, thallium flux, high-throughput (AID 2642).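 Also: channel opened by potassium depolarization with thallium stimulus after 20 min compound exposure.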 The following applies: CHO-K1 KCNQ1, FluxOR thallium flux fluorescence, at 10 µM; stronger effect = higher value.
For the molecule `CC1CCC(C(C)C)C(OP(=O)(Nc2ccccn2)c2ccccc2)C1` (stereo not drawn), the outcome was inactive.

Consider `Cc1ccc(C(=O)OC2CN3CCC2CC3)cc1` (stereo not drawn), for which the result was inactive.

Regarding `Cc1nn(-c2ccccc2)c2c1P(=O)(N1CCOCC1)N(C)C(c1ccccc1)=N2` (stereo not drawn), the call was inactive.

As to `COc1cc(C2NCCC3(OCCO3)C2(C)C)cc(OC)c1OC.O=[N+]([O-])c1cc([N+](=O)[O-])c(O)c([N+](=O)[O-])c1` (stereo not drawn), the call was inactive.

In the case of `CCOC(=O)C(CC)C1=NC(C)(C)Cc2ccccc21.O=[N+]([O-])c1cc([N+](=O)[O-])c(O)c([N+](=O)[O-])c1` (stereo not drawn), the outcome was inactive.

Take `CN(C)C1(CNC(=O)c2ccc(S(C)(=O)=O)cc2)CCCCC1`: the outcome was inactive.

In the case of `O=[N+]([O-])c1cc([N+](=O)[O-])c(Nc2nnnn2CCO)c([N+](=O)[O-])c1`, the molecule was classed as inactive.

Consider `O=C(/C=C/c1ccccc1)OC1CN2CCC1CC2` (stereo not drawn), for which the call was inactive.

As for `COc1ccccc1OP(C)(=O)Nc1c(C)cccc1C` (stereo not drawn), the molecule was called inactive.

Turning to `CN1CCCCC1COC(=O)C1(O)c2ccccc2CCc2ccccc21` (stereo not drawn), the outcome was inactive.

Consider `O=P1(Nc2ncccn2)COc2ccccc2OC1`, for which the result was inactive.

For `CCCOc1ccc(NP(C)(=O)Oc2ccc(Cl)cc2)cc1` (stereo not drawn), the result was inactive.

For the molecule `CP(=O)(Nc1ccc(SC(F)(F)F)cc1)Oc1ccccc1` (stereo not drawn), the molecule was called inactive.

For the molecule `Nc1cccc([As](=O)(O)c2ccccc2)c1`, the molecule was classed as inactive.

Turning to `O=[As](O)(c1cccs1)c1cccs1`, the call was inactive.

As to `Cc1ccc(OCC(=O)OC2CN3CCC2CC3)cc1` (stereo not drawn), the call was inactive.

As for `O=P1(Nc2ccc(Br)cn2)COc2ccccc2OC1`, the molecule was classed as inactive.

With `O=[N+]([O-])c1cc([N+](=O)[O-])c(-n2nnc3ccccc32)c([N+](=O)[O-])c1`, the molecule was called inactive.

Consider `CCOP(=O)(NC(=NC(C)c1ccccc1)NC(C)c1ccccc1)OCC` (stereo not drawn), for which the molecule was called inactive.

As for `O=P1(Nc2ccccn2)COc2ccccc2OC1`, the molecule was called inactive.

As for `CCOP(=O)(Nc1ccc(C)cn1)OCC`, the outcome was inactive.

Take `CN(CCCl)Cc1cc(Cl)c(NC2=NCCN2)c(Cl)c1`: the result was inactive.

Take `CC(C)(C)C(=O)NC(Sc1ncccn1)C(Cl)(Cl)Cl` (stereo not drawn): the call was inactive.

As to `Clc1n[nH]nc1-c1nn[nH][15n]1`, the molecule was classed as inactive.

For the molecule `O=[N+]([O-])c1cc([N+](=O)[O-])c(-c2cnn(-c3ccccc3)c2)c([N+](=O)[O-])c1`, the outcome was inactive.

With `COc1ccccc1CNC(=O)COC(=O)C(O)(c1ccccc1)c1ccccc1`, the outcome was inactive.

Turning to `CC(C)/C=N\N=C(\N)N[N+](=O)[O-]`, the call was inactive.

Consider `CN(C(=O)Cc1ccc(Cl)c(Cl)c1)[C@@H]1CCCC[C@H]1N1CCCC1`, for which the molecule was called inactive.

For `CC1(CBr)Cn2c(nc3ccccc3c2=O)S1` (stereo not drawn), the molecule was classed as inactive.

Consider `O=[As](O)(c1ccccc1Br)c1ccccc1Br`, for which the molecule was called inactive.

For `O=C(OC1CN2CCC1CC2)c1ccc(Cl)cc1` (stereo not drawn), the molecule was called inactive.

Take `CS(=O)(=O)c1ccc(Cl)c(NC(=O)COC(=O)C(O)(c2ccccc2)c2ccccc2)c1`: the outcome was inactive.

As to `COc1ccccc1OP(C)(=O)Nc1cccc(Br)c1` (stereo not drawn), the molecule was called inactive.

Turning to `O=[As](O)(O)c1cccnc1`, the outcome was inactive.

On to `Cc1cc(C)cc(OP(C)(=O)Nc2ccc(C)cc2C)c1` (stereo not drawn), for which the outcome was inactive.

`Cc1cccc(OCC(=O)OC2CN3CCC2CC3)c1` (stereo not drawn): the call was inactive.

In the case of `O=[As](O)(c1cccc(O)c1)c1cccc(O)c1`, the molecule was called inactive.

In the case of `CCOC(=O)c1ccc(NP(C)(=O)Oc2cc(C)cc(C)c2)cc1` (stereo not drawn), the outcome was inactive.

With `Cc1ccc(NCCc2c([N+](=O)[O-])cc([N+](=O)[O-])cc2[N+](=O)[O-])cc1`, the molecule was classed as inactive.

Regarding `Cc1cc(C)cc(OP(C)(=O)Nc2ccccn2)c1` (stereo not drawn), the molecule was called inactive.

On to `CP(=O)(Nc1cccc(Br)c1)Oc1ccccc1` (stereo not drawn), for which the molecule was called inactive.

For `Cc1ccc(C)c(NP(C)(=O)Oc2ccccc2)c1` (stereo not drawn), the result was inactive.

Consider `CCCOP(=S)(Nc1nc(N)cc(=O)[nH]1)OCCC`, for which the molecule was called inactive.

For `CCOP(=O)(Nc1cccc2ccccc12)OCC`, the call was inactive.

On to `O=P(Nc1nccs1)(Oc1ccccc1)Oc1ccccc1`, for which the molecule was called inactive.

Take `O=P(Nc1nccs1)(c1ccccc1)c1nc2ccccc2s1` (stereo not drawn): the call was inactive.

For `CCOP1(=S)c2c(C)nn(CCC#N)c2N=C(c2ccccc2F)N1C` (stereo not drawn), the molecule was classed as inactive.

Take `O=C(O)c1cccc(Nc2c([N+](=O)[O-])cc([N+](=O)[O-])cc2[N+](=O)[O-])c1`: the molecule was classed as inactive.

With `CS(=O)(=O)c1cc([N+](=O)[O-])c2no[n+]([O-])c2c1`, the call was inactive.

Take `Nc1ccccc1[As](=O)(O)c1ccccc1`: the outcome was inactive.

In the case of `O=C(O)COc1ccc([As](=O)(O)O)cc1[N+](=O)[O-]`, the molecule was classed as inactive.

As to `NC(=O)Nc1ccc([As](=O)(O)O)cc1`, the outcome was inactive.

`CN(C(=O)Cc1ccccc1)[C@@H]1CC[C@]2(CCCO2)C[C@H]1N1CCCC1`: the molecule was called inactive.

As to `CCOP1(=S)c2c(C)nn(CCC#N)c2N=C(c2ccc(F)cc2)N1C` (stereo not drawn), the call was inactive.

As to `N#CCCN(C(=O)COC(=O)C(O)(c1ccccc1)c1ccccc1)c1ccc(F)cc1`, the molecule was called inactive.

In the case of `CC1=NCCc2c1[nH]c1ccccc21.O=[N+]([O-])c1cc([N+](=O)[O-])c(O)c([N+](=O)[O-])c1`, the result was inactive.

Regarding `CN(C(=O)Cc1ccc(Cl)c(Cl)c1)[C@H]1CC[C@@]2(CCCO2)C[C@@H]1N1CCCC1`, the result was inactive.

`O=[N+]([O-])c1ccc2c(c1)nnn2O`: the call was inactive.

On to `O=[N+]([O-])c1cc([N+](=O)[O-])c(Nc2cccnc2)c([N+](=O)[O-])c1`, for which the B-score is active: 7.

On to `O=[As](O)(c1ccc(O)cc1)c1ccccc1O`, for which the molecule was classed as inactive.

For `C[As](=O)(O)c1cccc(C(=O)O)c1`, the result was inactive.

Turning to `Cc1cccc(C)c1OP(C)(N)=O` (stereo not drawn), the result was inactive.

On to `Cc1ccc(OP(=O)(Nc2ccc([N+](=O)[O-])cn2)Oc2ccc(C)cc2)cc1`, for which the molecule was classed as inactive.

`CC(C)(C)c1ccc(OP(C)(=O)Nc2ccc(SC(F)(F)F)cc2)cc1` (stereo not drawn): the call was inactive.

As for `O=[N+]([O-])c1ccc2c(c1)C=Nc1ccccc1O2`, the call was inactive.

As for `Cc1ccc2nc3c(c(C)c2c1)CC(C(Cl)Cl)S3` (stereo not drawn), the outcome was inactive.

Regarding `ClCCSc1nnc(-c2cccnc2)o1`, the molecule was classed as inactive.

Regarding `CCOC(=O)c1ccc(NP(C)(=O)Oc2ccccc2)cc1` (stereo not drawn), the molecule was classed as inactive.

As for `CC(C)c1ccc(OP(=O)(Nc2ccccn2)Oc2ccccc2F)cc1` (stereo not drawn), the molecule was called inactive.

Regarding `Cc1ccc(NP(C)(=O)Oc2ccccc2)c(C)c1` (stereo not drawn), the outcome was inactive.

As to `COc1ccccc1OP(C)(=O)Nc1ccc(C)cc1` (stereo not drawn), the molecule was classed as inactive.

As to `COc1ccc(OP(C)(=O)Nc2cccc(F)c2)cc1` (stereo not drawn), the result was inactive.

Consider `O=[N+]([O-])c1cc([N+](=O)[O-])c(-c2ccn[nH]2)s1`, for which the molecule was classed as inactive.

Source of the values: PubChem BioAssay AID2642 (Johns Hopkins Ion Channel Center, 2010).
